The text below walks through data of ChEMBL document CHEMBL1144846, “Herkinorin analogues with differential beta-arrestin-2 interactions” (J Med Chem, 2008).

Chains of the proteins cited; added tags and fusions are not shown.
UniProt P35372, whole entry, looked up: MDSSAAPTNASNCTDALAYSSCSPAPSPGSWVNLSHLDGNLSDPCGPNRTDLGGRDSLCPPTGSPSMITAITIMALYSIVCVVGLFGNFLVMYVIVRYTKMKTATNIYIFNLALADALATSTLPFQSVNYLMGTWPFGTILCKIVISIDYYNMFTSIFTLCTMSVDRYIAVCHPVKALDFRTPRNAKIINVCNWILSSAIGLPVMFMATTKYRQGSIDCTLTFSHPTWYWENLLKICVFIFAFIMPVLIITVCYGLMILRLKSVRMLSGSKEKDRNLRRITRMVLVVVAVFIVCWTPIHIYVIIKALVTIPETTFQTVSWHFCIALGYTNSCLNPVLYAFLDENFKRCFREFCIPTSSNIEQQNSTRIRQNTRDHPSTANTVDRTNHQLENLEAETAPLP

The assay addresses Mu-type opioid receptor (Homo sapiens, UniProt P35372). The assay can be described thus: Agonist activity at human recombinant mu opioid receptor expressed in CHO cells by [35S]GTP-gamma-S binding assay. For orientation: GTPγS is a poorly hydrolysed GTP analogue; its binding reports G protein activation.

As a reminder, the EC50 is the concentration at which the effect is half-maximal. For the compound `CN(C(=O)Cc1ccc(Cl)c(Cl)c1)C1CCCCC1N1CCCC1` (stereo unspecified), the 50% effective concentration (EC50) amounted to 4.84 µM.
